Patent US20160183564A1 (priority 2013, published 2016)
Where two headings read alike, the source gives them in different places.

Test system: VFA production
Conditions: average of three experiments

| Compound | Effect on VFA production (% compared to control) (dose 75 μM) | Effect on VFA production (% compared to control) (dose 0.625 μM) |
| --- | --- | --- |
| O=[N+]([O-])c1ccc(NCCO)cc1 [2-(4-Nitro-phenylamino)-ethanol] | −4% |  |
| O=[N+]([O-])OCCCO [3-nitrooxy propanol, 3-Nitrooxypropanol] |  | −2% |
| CCCNc1ccc([N+](=O)[O-])cc1 [(4-Nitro-phenyl)-propyl-amine] | −2% |  |
